# Apparent affinities of Ab-14 variants for a coronavirus HR2 peptide

The measurements come from Engelhart et al. 2022 (doi:10.1038/s41597-022-01779-4) through the FLAb antibody collection.

Target peptide (SARS-CoV-2 spike, HR2 region): PDVDLGDISGINAS

Ab-14 is the parent antibody, in scFv form: VH, then a (GGGGS)3 linker, then VL. The light chain is unchanged in all variants.
VH: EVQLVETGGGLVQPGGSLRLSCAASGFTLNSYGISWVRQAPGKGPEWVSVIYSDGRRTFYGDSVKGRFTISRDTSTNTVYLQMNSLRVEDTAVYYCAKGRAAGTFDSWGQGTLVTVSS
VL: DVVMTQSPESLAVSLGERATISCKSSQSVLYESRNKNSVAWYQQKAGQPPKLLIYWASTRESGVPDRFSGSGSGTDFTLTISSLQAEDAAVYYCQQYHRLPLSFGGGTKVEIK

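The library (AAYL49) carries one to three amino acid substitutions per variant, with no insertions or deletions. In AlphaSeq, yeast of one mating type display the scFv and yeast of the other type display the target. After mating in shaken culture at 30 °C for 16 h, diploids were selected and their barcode pairs sequenced. A regression on co-assayed BCL2-family reference pairs converts the normalised counts of each replicate to an apparent Kd. Each pool was mated in three replicate cultures.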

Positions count from residue 1 of the parent VH; G26I puts I in place of G. Values are log10 of the apparent Kd in nM; lower means stronger binding. Averages over replicates are reported, and they cover detected replicates only. An entry "no signal" has no value in the source: the pair was not observed among the diploids in any replicate. This suggests poor binding but is not conclusive. Three control strains display no target. For library AAYL49, 15% of the pairings with them gave a signal, with a median of 4.06 and one signal in twenty below 2.83, so weak values seen in few replicates may be background.

changes,"mean, log10 nM",replicates with signal
G26I+N30W+R56H,no signal,0 of 3
G33R+V50C+R57W,3.76,1 of 3
F27K+F105A,no signal,0 of 3
G26S+F59P+S107G,2.68,1 of 3
T28Y+S31Q+G33S,4.94,1 of 3
G33P+S53P+D62K,4.53,1 of 3
F59H+D62G,3.10,2 of 3
G33C+Y60N+K65D,no signal,0 of 3
L29I+V64N+A101G,no signal,0 of 3
S31K+G33C+R57C,4.42,1 of 3
S53M+T58L+G103I,4.87,1 of 3
I34H+R57F+S63A,4.73,2 of 3
T28I+F59S+G103S,no signal,0 of 3
S31H+G33C+D106M,no signal,0 of 3
F27M+S31W+G33L,no signal,0 of 3
G26A+K65M,2.27,3 of 3
Y32V+D62R+F105E,no signal,0 of 3
S31Y+Y52A+F59Y,3.39,3 of 3
G33W+I34M,4.71,1 of 3
T28W+Y32A+R57D,4.13,1 of 3
F27N+T58K+A102S,5.38,1 of 3
Y60F+D62K+S107T,2.55,2 of 3
I51G+F105D+D106G,4.60,1 of 3
N30E+S31D+Y32M,0.85,3 of 3
Y32I+T58M+R100D,2.01,3 of 3
Y52Q+D62V+G99K,3.94,1 of 3
Y52H+T104E+F105L,no signal,0 of 3
V50L+T58M,no signal,0 of 3
Y52H+R56T+S63I,no signal,0 of 3
S35A+T58V+Y60A,2.93,1 of 3
S53D+T58F+S107A,no signal,0 of 3
G26M+G55Y+D62I,no signal,0 of 3
L29W+S63W+S107D,3.04,2 of 3
G26S+F105G+S107T,no signal,0 of 3
S35M+I51Q,no signal,0 of 3
T28P+S35M+R57C,3.13,1 of 3
L29M+Y52W+T58Y,3.23,1 of 3
Y52V+D62V+D106K,no signal,0 of 3
G33E+T58H+G103R,no signal,0 of 3
F27R+L29Q+T58L,no signal,0 of 3
S31T+F59Q+G99S,1.26,3 of 3
V50D+T58W+F59T,no signal,0 of 3
Y32E+V64Q+D106L,4.22,3 of 3
V64E+G103E+D106V,4.70,1 of 3
Y52P+A102V,no signal,0 of 3
G26E+Y32G+V64Y,no signal,0 of 3
S35G+K65P+R100I,no signal,0 of 3

From the list, the first 4 with no signal in any replicate:

| changes | mean, log10 nM | replicates with signal |
|---|---|---|
| G26I+N30W+R56H | no signal | 0 of 3 |
| F27K+F105A | no signal | 0 of 3 |
| G33C+Y60N+K65D | no signal | 0 of 3 |
| L29I+V64N+A101G | no signal | 0 of 3 |